Laboratory results: patent publication EP4624466A1, “DEGRADER FOR DECOMPOSING CMET PROTEIN, AND PHARMACEUTICAL COMPOSITION COMPRISING SAME” (Innocure Therapeutics, Inc., priority 2022, dated 2024)
pIC50: −log10 of the molar value.

System: MKN-45
Assay: Cell viability / antiproliferative assay (WST-8), MKN-45;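 note: MKN-45 is a human gastric cancer line overexpressing c-MET, growth inhibition read as WST-8 formazan absorbance at 450 nm after 2 h dye incubation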
Settings: Homo sapiens, MKN-45, 72 h, read-out: MKN-45 IC50

SMILES: Cc1nn(C2CCC(=O)NC2=O)c(=O)c2cc(N3CCC(C(=O)NCCCNC(=O)CN4CCC(COc5cnc(-c6cccc(Cn7nc(-c8cccc(C#N)c8)ccc7=O)c6)nc5)CC4)CC3)ccc12 (stereo not shown) [ICT-0001238]
- pIC50: > 7.00
